The entries are a selection whose mix differs from that of the whole data set. Calls of active or inactive are those of the source. Cut-off read from the data, not from the text of the source: active = potentiation above about 50%; inconclusive = mostly about 30% to 49%; inactive = weaker than that.
The molecules below were run against D(2) dopamine receptor (Homo sapiens) (UniProt P14416) (assay: Beta-Arrestin HTS for Positive Allosteric Modulators of the Human D2 Dopamine Receptor: Potentiators). Details: DiscoveRx D2 beta-arrestin cells, luminescence, 90 min; hits give high values; 100% = 57 uM dopamine signal.
Text: There is great interest in identifying small molecule ligands for G-protein coupled receptors (GPCRs) as nearly 50% of all FDA-approved drugs target these important receptor proteins. […] Amongst the dopamine receptors (DARs), the D2 is arguably one of the most validated drug targets in neurology and psychiatry. For instance, all receptor-based antiparkinsonian drugs primarily work via stimulating the D2 DAR, whereas all FDA-approved antipsychotic agents are antagonists of this receptor. The D2 DAR is also therapeutically targeted in other disorders such as restless legs syndrome, tardive dyskinesia, Tourette's syndrome, and hyperprolactinemia.
To this end, a miniaturized qHTS screen was developed to be screened against the Molecular Libraries Small Molecule Repository (MLSMR). This assay seeks to identify potentiators against the D2 DAR.
NIH Molecular Libraries Probe Production Network [MLPCN] […]
DiscoveRx D2 cells were thawed from frozen stock and seeded at 2,100 cells/ 3 uL/well media (DiscoveRx Plating Reagent 2) with MultiDrop Combi dispenser (Thermo Scientific, Logan, UT) onto white tissue culture treated 1536-well Aurora plates (Brooks Automation, Chelmsford, MA) and allowed to attach overnight at 37 deg C, 5% CO2. […] The plates were incubated at ambient temperature for 1 hour and then the luminescent signal was read on ViewLux plate reader (PerkinElmer, Waltham, MA).

Chains of the proteins cited; added tags and fusions are not shown.
UniProt P14416, whole entry: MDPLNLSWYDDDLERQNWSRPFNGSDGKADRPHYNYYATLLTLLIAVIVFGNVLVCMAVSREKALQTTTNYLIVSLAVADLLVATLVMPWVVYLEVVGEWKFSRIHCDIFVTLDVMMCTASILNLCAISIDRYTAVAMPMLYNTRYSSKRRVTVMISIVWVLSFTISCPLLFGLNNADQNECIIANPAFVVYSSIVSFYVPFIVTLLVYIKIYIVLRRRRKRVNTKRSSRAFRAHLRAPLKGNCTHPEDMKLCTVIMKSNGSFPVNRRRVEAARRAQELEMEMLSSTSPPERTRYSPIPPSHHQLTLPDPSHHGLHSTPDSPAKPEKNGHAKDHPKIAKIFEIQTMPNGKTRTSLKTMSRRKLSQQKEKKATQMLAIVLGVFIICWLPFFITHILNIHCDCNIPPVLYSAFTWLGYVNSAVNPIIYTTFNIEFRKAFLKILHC

Row | Structure (SMILES) | potentiation
1 | CCc1ccc(OP(C)(=O)Nc2cccnc2)cc1 (stereo unspecified) | inactive: -16.6%

Source: PubChem BioAssay AID624464 (National Center for Advancing Translational Sciences (NCATS), 2012)
